# Laboratory results as given in patent US20240245770A1, “COMPOSITIONS AND METHODS FOR TREATING NEUROMUSCULAR DISORDERS” (The Regents of the University of California, priority 2019, published 2024).
# Test system: Sorted CD8+ T cells
# Test: CD8+ T cell Luminex
# Format: cell-based, human
# Experimental: (§1) Increased overall cytokine/chemokine/growth factor/ligands in CD8+ T cells of patient untreated or activated with IL-2 or anti-CD3/28 or IL-2+sAJ2 when compared to healthy twin (Tables 59-62). CD8+ T cell Luminex. Sorted CD8+ T cells were left untreated, treated with IL-2 (1000 U/mL) or treated with the combination of IL-2+anti-CD3/28 antibodies (25 μl/mL) or IL-2+sAJ2 (Cells:sAJ2 1:20). After an overnight treatment at 37° C., the supernatants were harvested and the levels of cytokine/chemokine/growth factor/ligands secretion were measured using multiplex luminex assay (Millipore, MA) (Tables 59-62).
# as §1, with “81-84).” for “59-62).”, “assay.” for “assay (Millipore, MA) (Tables 59-62).”
# as §1, with “patients” for “patient”, “90-94).” for “59-62).”, “assay.” for “assay (Millipore, MA) (Tables 59-62).”
# CD8+ T cell Luminex. Sorted CD8+ T cells were treated with the combination of IL-2+anti-CD3/28 antibodies (25 μl/mL). After an overnight treatment at 37° C., the supernatants were harvested and the levels of cytokine/chemokine/growth factor/ligands secretion were measured using multiplex luminex assay (Table 157).
# [1] = CD8+ T cells of H103 JC (ALS patient)
# [2] = CD8+ T cells of H103 JC (ALS patient), Table 94
# [3] = CD8+ T cells of H104 TC (healthy twin)
# [4] = CD8+ T cells of H104 TC (healthy twin), Table 94
# [5] = CD8+ T cells of H105 RS (ALS patient)
substance,measurement,setting,value
Recombinant human IL-2,EGF,[1],78 pg/mL
same,Eotaxin,[1],31 pg/mL
same,FGF2,[1],52 pg/mL
same,FIT3L,[1],50 pg/mL
same,Fractalkine,[1],228 pg/mL
same,GCSF,[1],292 pg/mL
same,GMCSF,[1],26 pg/mL
same,GRO,[1],3406 pg/mL
same,IFNa2,[1],66 pg/mL
same,IFNg,[1],31 pg/mL
same,IL-1Ra,[1],1022 pg/mL
same,IL-1a,[1],16 pg/mL
same,IL-1b,[1],41 pg/mL
same,IL-3,[1],3 pg/mL
same,IL-4,[1],209 pg/mL
same,IL-5,[1],6 pg/mL
same,IL-6,[1],82 pg/mL
same,IL-7,[1],32 pg/mL
same,IL-8,[1],6674 pg/mL
same,IL-9,[1],1149 pg/mL
same,IL-10,[1],51 pg/mL
same,IL-12p40,[1],47 pg/mL
same,IL-12p70,[1],12 pg/mL
same,IL-13,[1],23 pg/mL
same,IL-15,[1],21 pg/mL
same,IL-17a,[1],11 pg/mL
same,IP-10,[1],81 pg/mL
same,MCP1,[1],9873 pg/mL
same,MCP3,[1],112 pg/mL
same,MDC,[1],910 pg/mL
same,MIP1a,[1],212 pg/mL
same,MIP1b,[1],455 pg/mL
same,PDGF-AB/BB,[1],54 pg/mL
same,PDGFaa,[1],86 pg/mL
same,Rantes,[1],2377 pg/mL
same,TGFa,[1],6 pg/mL
same,TNFa,[1],37 pg/mL
same,TNFb,[1],15 pg/mL
same,VEGF,[1],1370 pg/mL
same,sCD40L,[1],37 pg/mL
same,PDGF-AB/BB,[2],54 pg/mL
same,PDGFaa,[2],86 pg/mL
same,sCD40L,[2],37 pg/mL
same,EGF,[3],63 pg/mL
same,Eotaxin,[3],27 pg/mL
same,FGF2,[3],48 pg/mL
same,FIT3L,[3],43 pg/mL
same,Fractalkine,[3],157 pg/mL
same,GCSF,[3],181 pg/mL
same,GMCSF,[3],21 pg/mL
same,GRO,[3],288 pg/mL
same,IFNa2,[3],43 pg/mL
same,IFNg,[3],22 pg/mL
same,IL-1Ra,[3],723 pg/mL
same,IL-1a,[3],13 pg/mL
same,IL-1b,[3],18 pg/mL
same,IL-3,[3],3 pg/mL
same,IL-4,[3],113 pg/mL
same,IL-5,[3],4 pg/mL
same,IL-6,[3],15 pg/mL
same,IL-7,[3],29 pg/mL
same,IL-8,[3],1084 pg/mL
same,IL-9,[3],1084 pg/mL
same,IL-10,[3],21 pg/mL
same,IL-12p40,[3],47 pg/mL
same,IL-12p70,[3],10 pg/mL
same,IL-13,[3],20 pg/mL
same,IL-15,[3],21 pg/mL
same,IL-17a,[3],10 pg/mL
same,IP-10,[3],163 pg/mL
same,MCP1,[3],1835 pg/mL
same,MCP3,[3],26 pg/mL
same,MDC,[3],325 pg/mL
same,MIP1a,[3],135 pg/mL
same,MIP1b,[3],234 pg/mL
same,PDGF-AB/BB,[3],52 pg/mL
same,PDGFaa,[3],58 pg/mL
same,Rantes,[3],1889 pg/mL
same,TGFa,[3],4 pg/mL
same,TNFa,[3],29 pg/mL
same,TNFb,[3],12 pg/mL
same,VEGF,[3],1022 pg/mL
same,sCD40L,[3],26 pg/mL
same,PDGF-AB/BB,[4],52 pg/mL
same,PDGFaa,[4],58 pg/mL
same,sCD40L,[4],26 pg/mL
same,EGF,[5],97 pg/mL
same,Eotaxin,[5],31 pg/mL
same,FGF2,[5],52 pg/mL
same,FIT3L,[5],51 pg/mL
same,Fractalkine,[5],228 pg/mL
same,GCSF,[5],248 pg/mL
same,GMCSF,[5],61 pg/mL
same,GRO,[5],611 pg/mL
same,IFNa2,[5],65 pg/mL
same,IFNg,[5],334 pg/mL
same,IL-1Ra,[5],965 pg/mL
same,IL-1a,[5],16 pg/mL
same,IL-1b,[5],62 pg/mL
same,IL-3,[5],3 pg/mL
same,IL-4,[5],124 pg/mL
same,IL-5,[5],6 pg/mL
same,IL-6,[5],61 pg/mL
same,IL-7,[5],30 pg/mL
same,IL-8,[5],3406 pg/mL
same,IL-9,[5],1149 pg/mL
same,IL-10,[5],23 pg/mL
same,IL-12p40,[5],50 pg/mL
same,IL-12p70,[5],15 pg/mL
same,IL-13,[5],26 pg/mL
same,IL-15,[5],21 pg/mL
same,IL-17a,[5],11 pg/mL
same,IP-10,[5],192 pg/mL
same,MCP1,[5],2893 pg/mL
same,MCP3,[5],28 pg/mL
same,MDC,[5],197 pg/mL
same,MIP1a,[5],317 pg/mL
